In this experiment the target is Cyclin-dependent kinase 6 (Homo sapiens) (UniProt Q00534). The experiment can be described thus: Thermal stabilization of CDK6 in human MDA-MB-231 cells 2 uM at 38 to 58 degreeC by CETSA analysis. Type of experiment: cell-based.

The chains behind the UniProt entries cited, without tags or fusion partners.
UniProt Q00534, whole entry: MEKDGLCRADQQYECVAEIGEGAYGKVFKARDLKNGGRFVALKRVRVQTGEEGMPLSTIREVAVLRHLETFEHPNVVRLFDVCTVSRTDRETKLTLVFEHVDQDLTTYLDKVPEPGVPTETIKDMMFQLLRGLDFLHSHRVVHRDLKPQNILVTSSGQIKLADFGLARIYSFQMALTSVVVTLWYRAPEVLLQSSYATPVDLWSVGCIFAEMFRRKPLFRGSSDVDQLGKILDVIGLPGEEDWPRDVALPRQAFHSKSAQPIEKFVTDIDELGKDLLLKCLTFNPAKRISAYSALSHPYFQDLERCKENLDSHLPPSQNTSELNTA

Calls of active or inactive are those of the source. The rule behind the calls is not given here.

In the case of `COc1cc(OC)c2c(=O)[nH]c(-c3ccc(C(=O)N4CC5(CCN(c6ncc7c(C)cc(=O)n(C8CCCC8)c7n6)CC5)C4)cc3)nc2c1`, the outcome was Active.

The record behind these values is ChEMBL document CHEMBL6083283, “Discovery of Dual CDK6/BRD4 Inhibitor Inducing Apoptosis and Increasing the Sensitivity of Ferroptosis in Triple-Negative Breast Cancer” (J Med Chem, 2024).
